Experiment [1] concerns the target T1, Stimulator of interferon genes protein (Homo sapiens, UniProt Q86WV6). Kind of experiment: Potentiation of cGAMP-induced STING pathway activation in human THP1-Dual KI-hSTING-R232 cells incubated for 24 hrs by reporter assay. It is filed as cell-based.
Experiment [2] addresses T1, Stimulator of interferon genes protein. Kind of experiment: Agonist activity at STING in human THP1-Dual KI-hSTING-R232 cells incubated for 24 hrs by reporter assay. It is filed as cell-based.
For experiment [3], the target named is T2, Stimulator of interferon genes protein (Mus musculus) (UniProt Q3TBT3).
T2 sequence (whole entry): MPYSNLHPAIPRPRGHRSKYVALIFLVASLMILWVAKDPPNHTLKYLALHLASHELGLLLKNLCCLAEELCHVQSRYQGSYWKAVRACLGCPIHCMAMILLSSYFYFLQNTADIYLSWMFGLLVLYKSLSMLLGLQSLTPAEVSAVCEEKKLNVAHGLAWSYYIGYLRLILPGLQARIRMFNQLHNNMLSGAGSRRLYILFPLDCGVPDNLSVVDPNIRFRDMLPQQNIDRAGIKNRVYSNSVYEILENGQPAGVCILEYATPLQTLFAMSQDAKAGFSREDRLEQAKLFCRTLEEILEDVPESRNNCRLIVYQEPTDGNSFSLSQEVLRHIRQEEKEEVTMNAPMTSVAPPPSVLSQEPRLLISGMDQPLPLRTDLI
Kind of experiment: Potentiation of cGAMP-induced mouse STING pathway activation expressed in HEK293 cells assessed as leftward shift in cGAMP agonist curve at 33 to 100 uM incubated for 48 hrs by QUANTI-Blue solution based spectrophotometric analysis. The settings on record: filed as agonist, dose 33-100 µM. The format is cell-based.

The chains behind the UniProt entries cited, without tags or fusion partners. Where a name states a change or a piece, a line headed by the entry shows the natural chain unless it says otherwise.
UniProt Q86WV6: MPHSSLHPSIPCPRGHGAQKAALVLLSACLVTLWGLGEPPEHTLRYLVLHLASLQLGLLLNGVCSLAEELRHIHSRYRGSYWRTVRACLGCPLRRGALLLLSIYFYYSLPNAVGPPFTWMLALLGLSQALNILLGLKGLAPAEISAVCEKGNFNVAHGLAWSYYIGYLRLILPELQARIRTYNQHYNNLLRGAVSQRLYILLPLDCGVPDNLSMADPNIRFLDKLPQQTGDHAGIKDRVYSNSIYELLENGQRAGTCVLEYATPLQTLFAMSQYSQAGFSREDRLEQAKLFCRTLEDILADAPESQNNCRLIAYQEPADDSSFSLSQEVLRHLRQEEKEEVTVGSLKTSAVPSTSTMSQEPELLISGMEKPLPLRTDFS

The target in experiment [4] is T2, Stimulator of interferon genes protein (Mus musculus). Kind of experiment: Potentiation of cGAMP-induced mouse STING pathway activation expressed in HEK293 cells assessed as fold change in cGAMP EC50 at 100 uM incubated for 48 hrs by QUANTI-Blue solution based spectrophotometric analysis relative to cGAMP alone. The format is cell-based. The settings on record: filed as agonist.

For experiment [5] the target is unchanged. Kind of experiment: Agonist activity at mouse STING expressed in HEK293 cells assessed as SEAP production at 100 uM incubated for 48 hrs by QUANTI-Blue solution based spectrophotometric analysis. The format is cell-based.
Experiment [6] has the same target. Kind of experiment: Potentiation of cGAMP-induced mouse STING pathway activation expressed in HEK293 cells assessed as fold change in cGAMP EC80 at 100 uM incubated for 48 hrs by QUANTI-Blue solution based spectrophotometric analysis relative to cGAMP alone. The format is cell-based. Conditions: filed as agonist.
The target is the same in experiment [7]. Kind of experiment: Potentiation of cGAMP-induced mouse STING pathway activation expressed in HEK293 cells assessed as fold change in cGAMP EC50 at 33 uM incubated for 48 hrs by QUANTI-Blue solution based spectrophotometric analysis relative to cGAMP alone. Conditions: filed as agonist. The format is cell-based.
The target is the same in experiment [8]. Kind of experiment: Potentiation of cGAMP-induced mouse STING pathway activation expressed in HEK293 cells assessed as fold change in cGAMP EC80 at 33 uM incubated for 48 hrs by QUANTI-Blue solution based spectrophotometric analysis relative to cGAMP alone. It is filed as cell-based. The settings on record: filed as agonist.
Experiment [9] has as its target T1, Stimulator of interferon genes protein. Kind of experiment: Potentiation of cGAMP-induced human STING pathway activation expressed in HEK293 cells assessed as SEAP production at 500 nM incubated for 48 hrs by QUANTI-Blue solution based spectrophotometric analysis. It is filed as cell-based. Conditions: filed as agonist.
Experiment [10] relates to B16-F10. The experiment can be described thus: Antitumor activity against mouse B16-F10 cells implanted in male C57BL/6 syngeneic mouse model assessed as reduction in tumor volume at 0.5 mg/kg, IT administered on days 7, 10 and 13. The format is functional, organism-based. Conditions: time 7.0 day.
Experiment [11] deals with THP1-Dual KO-STING. The experiment can be described thus: Induction of CXCL-10 release in human THP1-Dual KO-STING cells at 6.25 microg/ml incubated for 48 to 72 hrs by HTRF ImmunoFactor kit analysis. It is filed as functional, cell-based. Conditions: dose 6.25 µg/ml, time 48-72 hrs.
Experiment [12] deals with THP1-Dual KO-STING. Kind of experiment: Induction of IFN-gamma release in human THP1-Dual KO-STING cells at 6.25 microg/ml incubated for 48 to 72 hrs by HTRF ImmunoFactor kit analysis. The format is functional, cell-based. Conditions: dose 6.25 µg/ml, time 48-72 hrs. Background: Time-resolved FRET reads energy transfer from a long-lived donor to a nearby acceptor.
The test system of experiment [13] is THP1-Dual KO-STING. Kind of experiment: Induction of IL6 release in human THP1-Dual KO-STING cells at 6.25 microg/ml incubated for 48 to 72 hrs by HTRF ImmunoFactor kit analysis. The format is functional, cell-based. Conditions: dose 6.25 µg/ml, time 48-72 hrs.
Experiment [14] has as its target T1, Stimulator of interferon genes protein. Kind of experiment: Potentiation of cGAMP-induced human STING pathway activation expressed in HEK293 cells assessed as SEAP production at 25 uM incubated for 48 hrs by QUANTI-Blue solution based spectrophotometric analysis. Conditions: filed as agonist. It is filed as cell-based.
Experiment [15] has the same target. Kind of experiment: Potentiation of cGAMP-induced STING pathway activation in human THP1-Dual KO-STING cells incubated for 24 hrs by reporter assay. It is filed as cell-based. In general terms: Reporter assays use an easily measured gene product as a stand-in for the process of interest.
For experiment [16] the target is unchanged. The experiment can be described thus: Potentiation of cGAMP-induced STING pathway activation in human THP1-Dual KI-hSTING-R232 cells assessed as fold change at 25 uM incubated for 24 hrs by reporter assay relative to cGAMP. The format is cell-based. Conditions: filed as agonist.

SMILES strings stand for the structures. Active and inactive are the calls of the source. The calls are words filed in the database; no cut-off is given here.

Consider `Cc1ccc2c(=O)c3cccc(CC(=O)O)c3oc2c1C`, for which the result in [1] and in experiment [2] was inactive.
Regarding `CCOC(=O)Cn1c2ccc(OC)cc2c(=O)c2cc(OC)c(C)c(C)c21`, the result in experiment [3] was Active. Moreover, the fold change (FC) in experiment [4] is 2.06; in [6], 1.99; in experiment [7], 1.53; in experiment [8] it was 1.07. Besides, the result in experiment [5] was inactive.
`COc1cc2c(=O)c3cc(C)cc(C(=O)O)c3[nH]c2c(C)c1C`: the result in experiment [3] was Active. The fold change (FC) in experiment [4] amounted to 3.05; in experiment [6], 1.47; in [7] it was 1.34; in [8] it was 1.03. The outcome in [5] was inactive.
Consider `CC1(C)C(=O)N(Cc2c(F)cccc2Cl)c2cc(C(=O)NCc3c(F)cc(F)cc3F)ccc21`, for which the result in experiment [9] was Active.
With `Nc1nc2c(ncn2[C@@H]2O[C@@H]3COP(=O)(O)O[C@H]4[C@@H](O)[C@H](n5cnc6c(N)ncnc65)O[C@@H]4COP(=O)(O)O[C@@H]2[C@@H]3O)c(=O)[nH]1`, the result in experiment [10] was Active. In addition, the outcome in [11], in experiment [12] and in experiment [13] was inactive.
On to `COc1ccc2[nH]c3c(C)c(C)ccc3c(=O)c2c1`, for which the outcome in experiment [14] and in [1] (filed as agonist) was Active. The outcome in experiment [15] was inactive. Also, the fold change (FC) in experiment [16] was 2.72.

For the origin of these results see ChEMBL document CHEMBL6134906, “Design, Synthesis, and Biological Evaluation of Selective STING Synergists That Enhance cGAMP-STING Pathway Activation without Inherent Agonist Activity” (J Med Chem, 2025).
